Data on 2 molecules can be found in patent US12053459B2, “CDK2 inhibitors and methods of using the same” (Cedilla Therapeutics, Inc., priority 2021, dated 2024).

Test [1] deals with CDK2/Cyclin E1(14-475) (Homo sapiens, UniProt P24941). The test can be described thus: Caliper LabChip EZ Reader mobility shift assay, inhibition of CDK2/Cyclin E1 activity. Particulars: read-out: Caliper Assay IC50, class symbols A-D. The protocol:
Inhibition of CDK2/Cyclin E1 activity in the presence of compounds of the present disclosure was evaluated using a Caliper LabChip® EZ Reader mobility shift assay. In the assay, activated CDK2/Cyclin E1 catalyzes the phosphorylation of a fluorescently tagged peptide 5-FAM-QSPKKG-CONH2 (PerkinElmer, FL Peptide 18) which induces a difference in capillary electrophoresis mobility. The peptide substrate and product were measured, and the conversion ratio was used to determine the inhibition (as % activity and IC50 values) of CDK2/Cyclin E1. Reactions contained 50 mM HEPES pH 7.5, 10 mM MgCl2, 1 mM EDTA, 2 mM DTT, 0.01% Brij35, 0.5 mg/mL BSA, 0.1% DMSO, 2.5 nM CDK2/Cyclin E1(14-475), 100 μM ATP, and 1.5 μM fluorescent peptide substrate.
Dose titrations of inhibitors in 100% DMSO were combined with 3.25 nM CDK2/Cyclin E1(14-475) and 130 μM of ATP in reaction buffer. The mixtures were incubated for 30 minutes before the addition of fluorescent peptide substrate to initiate the kinase reaction. The final conditions were 2.5 nM CDK2/Cyclin E1(14-475), 100 μM ATP, and 1.5 μM fluorescent peptide. The reactions were stopped after 100 minutes with the addition of EDTA (6 mM final EDTA concentration). The stopped reactions were analyzed on a Caliper LabChip® EZ Reader II. […]

In test [2] the test system is Kuramochi cells. The test can be described thus: BrdU cell proliferation assay (colorimetric ELISA), Kuramochi cells. Particulars: read-out: BrdU Cell Proliferation Assay IC50, class symbols A-D. The method, then:
A BrdU assay was used as a measure of proliferation based on the DNA replication process of proliferating cells. BrdU, a pyrimidine analog, is added to the cell culture and incorporated into the DNA of proliferating cells. The presence of the BrdU analog was then measured through a colorimetric ELISA. After fixation and permeabilization of cells, peroxidase-conjugated antibody recognizing BrdU is added and allowed to incubate, followed by thorough washing to remove unbound antibody. In order to quantify the amount of bound antibody, peroxidase substrate is added and produces a color that can be measured at 450 nm. […]
On day 4, the plates were developed using the BrdU ELISA Cell Proliferation Assay according to manufacturer's instructions (Roche, 11647229001). […] Three washes with PBS were performed to remove any unbound antibody, followed by the addition of 100 μL of substrate solution to each well. […] was then added to halt the reaction, and plates were read out using an Envision spectrophotometer (Perkin Elmer) set to read 450 nm absorbance. Background absorbance values from empty wells were subtracted from all samples and then normalized to DMSO treated wells.

As to `CNC(=O)[C@H](CCCc1ccccc1)NC(=O)C1CN(C(=O)Cc2c[nH]c3cc(Cl)ccc23)CC2CN(C(=O)c3cc[nH]n3)CC21` (stereo partly shown), the IC50 in test [1] and in test [2] was greater than 10 µM each time.

Take `CNC(=O)[C@H](CCCc1ccccc1)NC(=O)C1CN(C(=O)C2(c3c[nH]c4ccccc34)CC2)CC2CN(C(=O)c3ccc(OC(C)C)c(OC)c3)CC21` (stereo partly shown): the IC50 is 0.5 to 5 µM in test [1] and greater than 10 µM in test [2].
